How the values were obtained:
[1] = target: T1, Growth hormone secretagogue receptor type 1 (Homo sapiens, UniProt Q92847); assay: Displacement of [125I]His9-ghrelin from human cloned GHS1a receptor expressed in LLC PK1 cells; format: cell-based
Procedure, shortened: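 Membranes from LLC PK-1 cells transiently electroporated with hGHS-R1a, harvested ~48 h post-transfection (10 μg protein), incubated 60 min at 25 °C in Tris pH 7.3/MgCl2/EDTA/bacitracin buffer with 60 pM 125I-His9-ghrelin and increasing competitor concentrations. Nonspecific binding defined with 1 μM ghrelin. Bound and free separated on PEI-soaked GF/C filters; gamma counting.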

Sequences of proteins named here, by UniProt entry; tags and fusion partners are left off.
UniProt Q92847, whole entry: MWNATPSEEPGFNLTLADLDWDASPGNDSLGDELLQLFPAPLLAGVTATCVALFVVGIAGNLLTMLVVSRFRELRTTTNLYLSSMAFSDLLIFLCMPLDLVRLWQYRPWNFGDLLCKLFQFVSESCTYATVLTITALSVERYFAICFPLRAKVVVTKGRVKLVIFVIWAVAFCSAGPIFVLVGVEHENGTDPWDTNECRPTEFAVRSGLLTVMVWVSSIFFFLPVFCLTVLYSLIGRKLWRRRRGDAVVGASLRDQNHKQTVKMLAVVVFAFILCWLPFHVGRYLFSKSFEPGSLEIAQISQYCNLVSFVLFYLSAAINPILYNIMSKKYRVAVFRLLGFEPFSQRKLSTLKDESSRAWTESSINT

[2] = target: T1, Growth hormone secretagogue receptor type 1; assay: Antagonist activity at human GHS1a receptor expressed in CHO cells assessed as accumulation of intracellular calcium level; format: functional, cell-based

| SMILES | IC50 [1] | Kb [2] |
| --- | --- | --- |
| COc1ccc(Cn2c(CCc3ccccc3)nnc2[C@@H](Cc2c[nH]c3ccccc23)NC(=O)C2CCCCN2)cc1 (single isomer, unassigned) | 23 nM | 53 nM |
| COc1ccc(Cn2c(CCc3ccccc3)nnc2[C@@H](Cc2c[nH]c3ccccc23)NC(=O)CN)cc1 | 32 nM | 19 nM |
| COc1ccc(Cn2c(CCc3ccccc3)nnc2[C@@H](Cc2c[nH]c3ccccc23)NC(=O)[C@H]2CCCCN2)cc1 | 11 nM | 27 nM |
